Legend:
[1] = tested on: GR chromatin association in MDA-MB-231 cells; test: GR ChIP-sequencing and analysis; assay type: cell-based, human; conditions: co-treatment with Dex
Experimental: MDA-MB-231 cells were grown to 80% confluence in 15-cm dishes in DMEM with 10% FBS, followed by 48h in DMEM supplemented with 2.5% charcoal-stripped FBS. […] Cells were cross-linked with 1% formaldehyde, quenched with glycine (final concentration of […]), and harvested. After cell lysis with ChIP lysis buffer (Magna ChIP A Chromatin Immunoprecipitation Kit, EMD Millipore), cells were sonicated to achieve the majority of DNA fragments between 200-400 bp. Input samples were preserved at -80° C. […] Following manufacturer's protocol, chromatin was eluted from GR ChIP and input samples. Library build and sequencing was performed at the University of Oregon Genomics Core facility using the NextSeq 500 sequencer. Quality control on sequences and adapter sequencing trimming was performed using Kapa Biosystems Illumina Library Quantification Kit. ChIP-seq analysis was carried out using the Galaxy platform (usegalaxy.org (111)). […] GR peaks for each treatment were normalized to its own input control sample. […] Selected GR peak locations in hg19 and GR peak maps were also individually analyzed using Integrative Genomics Viewer, IGV (Broad Institute (116)).

[2] = tested on: GR-regulated gene expression in MDA-MB-231 cells; test: Gene expression microarray and analysis; assay type: cell-based, human; conditions: n=462 genes; cell survival, invasion, EMT pathways; FIG. 13
Experimental: MDA-MB-231 cells were grown to 80% confluence in 15-cm dishes in DMEM with 10% FBS. […] Following compound exposure, cells were washed in PBS, and lysed in RNA lysis buffer (Qiagen) overnight at -80° C. RNA extraction, with accompanying DNase treatment, was performed using the RNeasy kit (Qiagen) following the manufacturer's protocol. […] The University of Chicago Genomics Core facility carried out the reverse transcription on the samples, followed by microarray using the Affymetrix Human U133 Plus 2.0 platform. […] A principal components analysis (PCA) was performed using the prcomp function in R (Q-mode PCA using singular value decomposition). […] Dex-regulated genes were overlapped with a list of n=5,170 differentially-expressed tumor-derived genes (in the same direction) from GR-high versus GR-low BCs (52). Ingenuity Pathway Analysis (Qiagen) of the n=462 patient-relevant and antagonist-inhibited genes was performed to obtain Activation Z-scores of the most significant Diseases and Biofunctions (cell functions).

Which results are given for CCOC[C@]12Cc3cnn(-c4ccc(F)cc4)c3C=C1CCN(S(=O)(=O)c1ccc(C(F)(F)F)cc1)C2 [C297]?
Relative GR promoter enrichment (+/−3kb) [1]: decrease in relative GR promoter enrichment; Pathway activation Z-score (Ingenuity Pathway Analysis) relative to Dex [2]: relative dampening of Z-score magnitude
